Key:
CYP2B6 = conditions: Donor 3
CYP2B6 mRNA = test: CYP2B6 gene expression induction in hepatocyte cultures; conditions: Donor 2

ursodeoxycholic acid
Maximum fold induction of CYP2B6 activity (CYP2B6): 2.75 fold
Maximum fold induction of CYP2B6 gene expression (CYP2B6 mRNA): 12.0 fold
